# AlphaSeq binding of Ab-14 light chain variants to a spike HR2 peptide

Antigen: PDVDLGDISGINAS, a 14-residue peptide of the SARS-CoV-2 spike HR2 region.

Ab-14 is the parent antibody, in scFv form: VH, then three GGGGS repeats, then VL. The heavy chain is unchanged in all variants.
VH: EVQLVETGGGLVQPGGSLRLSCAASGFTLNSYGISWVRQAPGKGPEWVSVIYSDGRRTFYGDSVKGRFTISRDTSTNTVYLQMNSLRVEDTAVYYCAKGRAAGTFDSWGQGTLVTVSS
VL: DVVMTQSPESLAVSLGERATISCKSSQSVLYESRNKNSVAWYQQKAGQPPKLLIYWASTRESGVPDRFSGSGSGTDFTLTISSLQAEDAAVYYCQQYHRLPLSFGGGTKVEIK

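The parent was found by panning a naive human phage display library on the peptide. These sequences belong to a second round, designed from the earlier measurements on random variants of the parent. Several design methods are mixed in this list. Affinity was read by AlphaSeq, a pooled yeast mating assay with surface-displayed partners. Mating (16 h, 30 °C) was followed by selection of diploids and sequencing of their barcodes. Each replicate has its own calibration line, from reference interactions of the BCL2 family. Mating was done six times.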

Each variant's VL is given in full. Scale: log10 of Kd in nM, estimated from mating counts; low values are strong binders. The mean shown is taken over the replicates in which the pair was detected. "nd" marks a missing value. The strain was present, yet no cells mated with the target were sequenced in any replicate, which points to weak or no binding. Three control strains display no target. For all light chain designs, 4% of the pairings with them gave a signal, with a median of 2.64 and one signal in twenty below 1.59, so weak values seen in few replicates may be background. For each scFv, signals with the empty controls are counted beside the result.

With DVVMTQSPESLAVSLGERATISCKLGEQGGHSMDHANNIAWYQQKAGQPPKLLIYEVDMLDQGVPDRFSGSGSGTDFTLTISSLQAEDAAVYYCQQYMRLPLIFGGGTKVEIK the result was 0.27 (6 of 6 replicates; controls 0 of 18).
With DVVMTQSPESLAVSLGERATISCKSSASVEYQERNINSVAWYQQKAGQPPKLLIYEASQREQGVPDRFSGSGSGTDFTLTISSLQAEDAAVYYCQQYHRLPLSFGGGTKVEIK the result was 1.11 (6 of 6 replicates; controls 0 of 18).
With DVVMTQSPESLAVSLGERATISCNLGGLDVNSTYEMKAVAWYQQKAGQPPKLLIYDVSEVGEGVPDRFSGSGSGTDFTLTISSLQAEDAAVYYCQHYSRLPLSFGGGTKVEIK the result was 1.65 (6 of 6 replicates; controls 0 of 18).
With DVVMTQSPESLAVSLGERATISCHMRMDCSGYQNYGKAIAWYQQKAGQPPKLLIYHGNMRHNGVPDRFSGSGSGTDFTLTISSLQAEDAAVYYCQQYSRLPFSFGGGTKVEIK the result was 1.47 (6 of 6 replicates; controls 0 of 18).
With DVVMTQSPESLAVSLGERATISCKSSNSVLYESRNKNSVAWYQQKAGQPPKLLIYWASTRESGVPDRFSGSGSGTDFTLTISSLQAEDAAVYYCQQYHRLPLSFGGGTKVEIK the result was 2.11 (6 of 6 replicates; controls 0 of 18).
With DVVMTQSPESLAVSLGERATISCSFDLTKSGMENERYSIAWYQQKAGQPPKLLIYETSTLMTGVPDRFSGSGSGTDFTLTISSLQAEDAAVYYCQDYARLPLYFGGGTKVEIK the result was 0.55 (6 of 6 replicates; controls 0 of 18).
With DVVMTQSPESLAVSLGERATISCKLMQSVLYESRNKNSVAWYQQKAGQPPKLLIYNASTREVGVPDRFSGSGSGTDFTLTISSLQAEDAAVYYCQQYHRLPLSFGGGTKVEIK the result was -0.15 (6 of 6 replicates; controls 1 of 18).
With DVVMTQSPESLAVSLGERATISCKSSQSVPYEWRNKNSVAWYQQKAGQPPKLLIYWASTRESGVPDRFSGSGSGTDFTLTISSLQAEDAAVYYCQQYHRLPLSFGGGTKVEIK the result was 1.88 (4 of 6 replicates; controls 0 of 18).
With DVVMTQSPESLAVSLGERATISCKSSQSVPYESRNKNSVAWYQQKAGQPPKLLIYSASTRESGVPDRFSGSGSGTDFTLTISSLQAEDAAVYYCQQYHRLPNSFGGGTKVEIK the result was 0.49 (6 of 6 replicates; controls 0 of 18).
With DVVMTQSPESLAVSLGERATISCALSQSQLYESRNKNSVAWYQQKAGQPPKLLIYNASTRESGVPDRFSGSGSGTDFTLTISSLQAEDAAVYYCQQYHRLPLSFGGGTKVEIK the result was 0.17 (6 of 6 replicates; controls 2 of 18).
With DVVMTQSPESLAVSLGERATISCKLAMILSMWADTYHGVAWYQQKAGQPPKLLIYDANHKASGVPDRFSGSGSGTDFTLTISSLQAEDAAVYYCQQYNRLPLSFGGGTKVEIK the result was 0.79 (6 of 6 replicates; controls 0 of 18).
With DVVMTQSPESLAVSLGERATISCKLSQSVGYESRNKNNVAWYQQKAGQPPKLLIYNASTRESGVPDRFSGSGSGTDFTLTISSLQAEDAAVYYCQQYHRLPLSFGGGTKVEIK the result was -0.09 (6 of 6 replicates; controls 1 of 18).
With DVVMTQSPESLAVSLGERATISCHFQIGMNQGSSMEHNIAWYQQKAGQPPKLLIYEGTYAEEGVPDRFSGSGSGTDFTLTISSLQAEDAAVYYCQQYARLPLQFGGGTKVEIK the result was 0.64 (6 of 6 replicates; controls 0 of 18).
With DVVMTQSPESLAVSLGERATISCKFSQSVLYESRNKNSVAWYQQKAGQPPKLLIYDASQRLSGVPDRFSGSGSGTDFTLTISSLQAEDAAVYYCQQYHRLPLSFGGGTKVEIK the result was 0.24 (6 of 6 replicates; controls 3 of 18).
With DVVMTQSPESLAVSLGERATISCKLSQSVLYESRNKQSVAWYQQKAGQPPKLLIYEASTRESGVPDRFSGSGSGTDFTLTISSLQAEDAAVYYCQQYHRLPLSFGGGTKVEIK the result was -0.35 (6 of 6 replicates; controls 0 of 18).
With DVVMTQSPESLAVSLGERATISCKIGQTLNQLMHQKNNVAWYQQKAGQPPKLLIYDLVTRENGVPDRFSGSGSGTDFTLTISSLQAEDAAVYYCQQYHRLPLSFGGGTKVEIK the result was 0.29 (6 of 6 replicates; controls 0 of 18).
With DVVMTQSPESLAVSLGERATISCKITDKFLTEGNGRQNIAWYQQKAGQPPKLLIYHAMVALEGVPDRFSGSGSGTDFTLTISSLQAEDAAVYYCQQYQQLPLAFGGGTKVEIK the result was 0.42 (6 of 6 replicates; controls 0 of 18).
With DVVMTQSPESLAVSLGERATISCKIGMTLNTLQHQKNNVAWYQQKAGQPPKLLIYDLVMREQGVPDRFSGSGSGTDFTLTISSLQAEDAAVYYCQQYHRLPLSFGGGTKVEIK the result was 0.36 (6 of 6 replicates; controls 0 of 18).
With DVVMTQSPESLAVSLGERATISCKARQSQLYESRNQNSVAWYQQKAGQPPKLLIYNASQRLSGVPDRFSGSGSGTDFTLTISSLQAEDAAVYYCQQYHRLPLSFGGGTKVEIK the result was 1.53 (6 of 6 replicates; controls 0 of 18).
With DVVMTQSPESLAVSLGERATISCKSSISVLYESFNKNSVAWYQQKAGQPPKLLIYWASTRESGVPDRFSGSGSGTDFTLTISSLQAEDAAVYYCQQYHRLPLSFGGGTKVEIK the result was 0.68 (6 of 6 replicates; controls 2 of 18).
With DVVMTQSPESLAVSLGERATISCKSSGSWLYESRNKNSVAWYQQKAGQPPKLLIYGASSRESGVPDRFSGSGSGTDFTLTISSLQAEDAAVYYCQQYHRLPLSFGGGTKVEIK the result was -0.09 (6 of 6 replicates; controls 2 of 18).
With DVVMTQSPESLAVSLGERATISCKVYPSYLYESRNKNAVAWYQQKAGQPPKLLIYQASTRESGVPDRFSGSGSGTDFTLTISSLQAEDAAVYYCQQYHRLPLSFGGGTKVEIK the result was -0.37 (6 of 6 replicates; controls 0 of 18).
With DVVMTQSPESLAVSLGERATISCKSSQSVLYESENKNSVAWYQQKAGQPPKLLIYWASTRESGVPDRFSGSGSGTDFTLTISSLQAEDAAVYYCQQYHRLPLSFGGGTKVEIK the result was 1.24 (6 of 6 replicates; controls 4 of 18).
With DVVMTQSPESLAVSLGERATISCKLSMSMRFLTEEKNSIAWYQQKAGQPPKLLIYELVTRMSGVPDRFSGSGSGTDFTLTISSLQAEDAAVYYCQQYHRLPLSFGGGTKVEIK the result was nd (0 of 6 replicates; controls 0 of 18).
With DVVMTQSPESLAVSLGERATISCKLSQSQGGWQRNKNSVAWYQQKAGQPPKLLIYEASTREMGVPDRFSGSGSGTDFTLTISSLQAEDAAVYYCQQYHRLPLSFGGGTKVEIK the result was 0.25 (6 of 6 replicates; controls 0 of 18).
With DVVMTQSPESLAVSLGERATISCKLSQQDWYEERNCNSVAWYQQKAGQPPKLLIYQASTREQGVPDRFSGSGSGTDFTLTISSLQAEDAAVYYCQQYHRLPLSFGGGTKVEIK the result was -0.12 (6 of 6 replicates; controls 0 of 18).

3 of these entries, quoted again:

Variant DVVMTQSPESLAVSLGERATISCKITDKFLTEGNGRQNIAWYQQKAGQPPKLLIYHAMVALEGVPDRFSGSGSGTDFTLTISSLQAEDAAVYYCQQYQQLPLAFGGGTKVEIK gave 0.42 (6 of 6 replicates; controls 0 of 18).
Variant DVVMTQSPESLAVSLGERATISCKLSQSVGYESRNKNNVAWYQQKAGQPPKLLIYNASTRESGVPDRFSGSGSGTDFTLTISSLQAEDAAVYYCQQYHRLPLSFGGGTKVEIK gave -0.09 (6 of 6 replicates; controls 1 of 18).
Variant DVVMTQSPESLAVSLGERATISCKARQSQLYESRNQNSVAWYQQKAGQPPKLLIYNASQRLSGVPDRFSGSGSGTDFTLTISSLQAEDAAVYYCQQYHRLPLSFGGGTKVEIK gave 1.53 (6 of 6 replicates; controls 0 of 18).

A sequence measured in both rounds can read differently, since the two assays cover different ranges. In the paper, a design with two or fewer of six values counts as a poor binder. Of ten entries with the parent sequence, four were seen in most replicates (averages 0.34 to 2.37), three in one and three in none, so single entries are noisy.

Values reported by Li et al. 2023, doi:10.1038/s41467-023-39022-2 (FLAb copy).